SMILES strings stand for the structures.

Amino acid sequences for entries named in this document (tags omitted).
UniProt P03372, whole entry: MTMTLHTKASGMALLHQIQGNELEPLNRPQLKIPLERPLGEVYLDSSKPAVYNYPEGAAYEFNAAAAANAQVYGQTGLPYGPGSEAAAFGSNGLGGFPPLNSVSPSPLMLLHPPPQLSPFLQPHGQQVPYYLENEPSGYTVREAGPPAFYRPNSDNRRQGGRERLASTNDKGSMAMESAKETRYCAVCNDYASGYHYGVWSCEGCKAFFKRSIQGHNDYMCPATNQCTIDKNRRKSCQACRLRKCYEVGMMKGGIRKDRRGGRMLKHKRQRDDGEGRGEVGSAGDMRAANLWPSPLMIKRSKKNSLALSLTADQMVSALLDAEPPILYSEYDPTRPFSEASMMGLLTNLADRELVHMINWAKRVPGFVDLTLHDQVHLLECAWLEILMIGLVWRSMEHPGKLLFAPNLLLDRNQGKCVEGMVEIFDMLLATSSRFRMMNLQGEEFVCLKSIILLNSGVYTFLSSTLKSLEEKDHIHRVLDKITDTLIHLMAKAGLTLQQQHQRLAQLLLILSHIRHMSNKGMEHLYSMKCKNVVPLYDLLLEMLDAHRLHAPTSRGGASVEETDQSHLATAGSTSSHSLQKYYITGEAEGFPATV

In one assay the target is T1, Estrogen receptor (Homo sapiens, UniProt P03372). The conditions noted are these: MCF7, dose 0.0002-100 nM, time 4.0 hrs.
The Emax is the maximal effect, on the per cent scale that the assay sets. On to `C[C@@H]1Cc2c([nH]c3ccccc23)[C@@H](c2c(F)cc(OC3CN(CCCO)C3)cc2F)N1CC(F)(F)CO`, for which the Emax came out at 80%.

`C[C@@H]1Cc2c([nH]c3ccccc23)[C@@H](c2c(F)cc(O[C@H]3CCN(CCCF)C3)cc2F)N1CC(F)(F)CO` came in with a maximum response (Emax) of 99%.

Take `C[C@@H]1Cc2c([nH]c3ccc(F)cc23)[C@@H](c2c(F)cc(NC3CN(CCCF)C3)cc2F)N1CC(F)(F)CO`: the Emax amounted to 101%.

Turning to `C[C@@H]1Cc2c([nH]c3cccc(F)c23)[C@@H](c2c(F)cc(NC3CN(CCCF)C3)cc2F)N1CC(F)(F)CO`, the Emax came out at 103%. Turning to `C[C@@H]1Cc2c([nH]c3ccccc23)[C@@H](c2c(F)cc(NC3CN(CCC(F)F)C3)cc2F)N1CC(F)(F)CO`, the maximal response (Emax) was found to be 100%. On to `C[C@@H]1Cc2c([nH]c3ccccc23)[C@@H](c2c(F)cc(NC3CN(CCCF)C3)cc2F)N1CC(F)(F)CO` [GIREDESTRANT], for which the maximal response (Emax) is 101%. Same read-out and setting: with `C[C@@H]1Cc2c([nH]c3ccccc23)[C@@H](c2c(F)cc(N[C@H]3CCN(CCCF)C3)cc2F)N1CC(F)(F)CO` the figure was 99%; with `C[C@@H]1Cc2c([nH]c3ccccc23)[C@@H](c2c(F)cc(OCCN3CC(CF)C3)cc2F)N1CC(C)(C)F`, 95%. For `C[C@@H]1Cc2c([nH]c3ccccc23)[C@@H](c2c(F)cc(OC3CN(CCCF)C3)cc2F)N1CC(C)(C)F`, the maximal response (Emax) amounted to 100%.

A further assay has as its target T1, Estrogen receptor. The conditions noted are these: MCF7, dose 1.0 nM, time 0.5-24 hrs.
Consider `C[C@@H]1Cc2c([nH]c3ccccc23)[C@@H](c2c(F)cc(NC3CN(CCCF)C3)cc2F)N1CC(F)(F)CO` [GIREDESTRANT], for which the T1/2 is 1.8 h.

These data come from ChEMBL document CHEMBL4825708, “GDC-9545 (Giredestrant): A Potent and Orally Bioavailable Selective Estrogen Receptor Antagonist and Degrader with an Exceptional Preclinical Profile for ER+ Breast Cancer” (J Med Chem, 2021).
